Data as given in BindingDB's records for doi:10.1021/jm00059a019 (Merck Research Laboratories, 1993).

Molecular target: T1, Dimer of Gag-Pol polyprotein [489-587] (Human immunodeficiency virus 1, UniProt P12497)
T1 construct: 489-587
Test: Protease Inhibition Assay
Conditions: pH 5.5; 30 °C
Protocol: Sensitivity of HIV-1 protease activity to protease inhibitors was determined by a peptide substrate cleavage assay. Protease products were analyzed on a reverse-phase high-pressure liquid chromatograph.

SMILES: CC(C)(C)NC(=O)C1C[C@@H]2CCCC[C@@H]2CN1C[C@@H](O)[C@H](Cc1ccccc1)NC(=O)O[C@H]1CCOC1 (stereo partly drawn) [(3S)-oxolan-3-yl N-[(2S,3R)-4-[(4aS,8aS)-3-(tert-butylcarbamoyl)-decahydroisoquinolin-2-yl]-3-hydroxy-1-phenylbutan-2-yl]carbamate]
- IC50: 160 nM
